{"sequences": {"note": "Amino acid sequences for entries named in this document (tags omitted).", "UniProt P05177, whole entry": "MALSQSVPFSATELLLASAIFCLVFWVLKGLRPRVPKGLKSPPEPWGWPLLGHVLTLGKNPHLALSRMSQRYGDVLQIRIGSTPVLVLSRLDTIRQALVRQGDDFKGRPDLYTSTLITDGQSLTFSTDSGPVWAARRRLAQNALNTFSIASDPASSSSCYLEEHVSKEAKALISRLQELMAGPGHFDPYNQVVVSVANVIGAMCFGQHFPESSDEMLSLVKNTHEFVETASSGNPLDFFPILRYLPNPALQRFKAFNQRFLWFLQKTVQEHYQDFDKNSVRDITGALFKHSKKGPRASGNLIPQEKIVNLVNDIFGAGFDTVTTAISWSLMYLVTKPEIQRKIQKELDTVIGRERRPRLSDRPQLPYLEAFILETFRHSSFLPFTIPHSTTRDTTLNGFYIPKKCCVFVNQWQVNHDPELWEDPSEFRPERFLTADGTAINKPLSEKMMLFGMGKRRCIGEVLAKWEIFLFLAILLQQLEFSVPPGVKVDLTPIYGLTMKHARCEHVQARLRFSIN"}, "source": "ChEMBL document CHEMBL4257453", "about": "“Identification of karanjin isolated from the Indian beech tree as a potent CYP1 enzyme inhibitor with cellular efficacy via screening of a natural product repository” (Medchemcomm, 2018)", "biological_target": "CYP1A2 (Homo sapiens, UniProt P05177)", "experiment": "Inhibition of recombinant human CYP1A2 expressed in baker's yeast-derived microsomes (Sacchrosomes) at 10 uM using 3-cyano-7-ethoxycoumarin substrate by EROD assay relative to control", "assay_type": "ADME", "settings": "probe 3-cyano-7-ethoxycoumarin", "procedure,_shortened": "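Yeast microsomes carrying recombinant CYP (Sacchrosomes). […] Substrates per isoform are 7-ethoxyresorufin, 3-cyano-7-ethoxycoumarin, EOMCC or dibenzylfluorescein, read as endpoint fluorescence. Background from compound-only wells without enzyme is subtracted. Independent triplicate runs; α-naphthoflavone positive control.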", "data": [{"compound": "O=c1cc(-c2ccccc2)oc2c1ccc1ccccc12", "note": "[ALPHA-NAPHTHOFLAVONE]", "values": [{"measurement": "inhibition at 10 µM", "value": 95, "unit": "%"}]}]}
